Results as given in patent US10112955B2, “Isoindoline, azaisoindoline, dihydroindenone and dihydroazaindenone inhibitors of Mnk1 and Mnk2” (eFFECTOR THERAPEUTICS, INC., priority 2015, dated 2018).

Amino acid sequences for entries named in this document (tags omitted). A change or cut given only in a name is not applied to a line headed by its entry.
UniProt Q9BUB5: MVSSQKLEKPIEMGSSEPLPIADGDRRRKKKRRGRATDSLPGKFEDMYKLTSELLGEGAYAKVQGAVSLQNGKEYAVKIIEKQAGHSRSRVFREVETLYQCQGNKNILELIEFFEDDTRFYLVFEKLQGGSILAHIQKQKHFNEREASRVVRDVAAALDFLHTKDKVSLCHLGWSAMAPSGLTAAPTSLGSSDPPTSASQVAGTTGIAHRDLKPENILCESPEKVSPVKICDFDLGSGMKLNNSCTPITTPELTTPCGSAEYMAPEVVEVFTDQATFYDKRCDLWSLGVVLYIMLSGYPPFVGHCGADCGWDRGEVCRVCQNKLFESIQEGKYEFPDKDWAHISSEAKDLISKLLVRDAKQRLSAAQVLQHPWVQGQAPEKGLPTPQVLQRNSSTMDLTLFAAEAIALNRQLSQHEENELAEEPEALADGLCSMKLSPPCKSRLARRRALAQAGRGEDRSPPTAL

Target: MNK1 (Homo sapiens (Human), UniProt Q9BUB5)
Assay: MNK Biochemical Enzymatic Assay (ADP-Glo), MNK1
Settings: 10 nM recombinant MNK1, 100 μM substrate peptide, 300 μM ATP
Description: Compounds are screened for MNK inhibition using the ADP-Glo kinase assay kit (Promega, catalogue No. V9101). All kinase reactions are performed in Reaction Buffer E (15 mM HEPES pH7.4, 20 mM NaCl, 1 mM EGTA, 10 mM MgCl2, 0.1 mg/ml BGG, and 0.02% Tween-20). Final MNK1 reactions contained 10 nM recombinant MNK1 (Life Technologies, PR9138A), 100 μM MNK substrate peptide Ac-[…]-NH2 (amino acid sequence shown SEQ ID NO: 1) (American Peptide Company), 300 μM ATP, and varying concentrations of the inhibitory compound of interest. Final MNK2 reactions contained 3 nM recombinant MNK2 (Life Technologies, PV5607), 50 μM MNK substrate peptide Ac-[…]-NH2 (amino acid sequence shown SEQ ID NO: 1) (American Peptide Company), 10 μM ATP, and varying concentrations of the inhibitory compound of interest. Final DMSO concentration in each reaction is 1%.
Kinase reactions are carried out in 96-well half-area white flat-bottom polystyrene plates in a final volume of 25 μl. MNK1/2 enzymes are pre-incubated with compound and peptide substrate for 5 minutes prior to the addition of ATP. After the addition of ATP, kinase reactions are incubated at room temperature for 40 minutes. […] The final luminescent signal used for kinase activity readout is produced by the addition of 45 μl of Kinase Detection Reagent (ADP-Glo kit, Promega) and incubating for 40 minutes.

Structure (SMILES): CC1(CN)NC(=O)c2ccc(Nc3ccncn3)cc21 (stereo not shown) [Cpd. No. 40, 3-(aminomethyl)-3-methyl-5-(pyrimidin-4-ylamino)isoindolin-1-one hydrochloride salt]
- IC50: 0.1 to 10 µM

Where a name gives a salt, the structure may show the parent alone.
